## Yeast mating assay 2: variants of the scFv Ab-95

Binding partner: SARS-CoV-2 spike HR2 peptide, sequence PDVDLGDISGINAS.

Parent: Ab-95, a human scFv built as VH, a (GGGGS)3 linker, VL. Only the CDRs of the light chain vary.
VH: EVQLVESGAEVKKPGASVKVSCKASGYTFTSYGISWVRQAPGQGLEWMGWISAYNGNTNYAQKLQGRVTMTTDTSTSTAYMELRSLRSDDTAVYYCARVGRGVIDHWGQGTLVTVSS
VL: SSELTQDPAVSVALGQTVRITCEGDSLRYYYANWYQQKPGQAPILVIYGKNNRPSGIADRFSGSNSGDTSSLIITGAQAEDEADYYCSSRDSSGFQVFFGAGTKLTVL

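Phage display of a naive human antibody library on the peptide gave the parent. The library (AAYL52) carries one to three amino acid substitutions per variant, with no insertions or deletions. AlphaSeq pools MATa yeast showing the antibodies with MATalpha yeast showing the peptide. Mating (16 h, 30 °C) was followed by selection of diploids and sequencing of their barcodes. A regression on co-assayed BCL2-family reference pairs converts the normalised counts of each replicate to an apparent Kd. Mating was done three times.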

Substitutions are numbered in sequence along the VL above, starting at 1 (not Kabat). Every variant below is changed at S26 of the VL (sequential numbering). Each Kd is an estimate from the mating assay, the geometric mean of the replicates in which the pair was seen; lower is stronger. A pair that was not seen in any replicate is written "not detected"; this usually means weak binding, but a binder can also be missed.

| changes | Kd | seen in |
|---|---|---|
| S26V N33T G94A | not detected | 0 of 3 |
| S26R L27M G49T | 7.1 µM | 3 of 3 |
| S26L D91F G94P | 2.1 µM | 3 of 3 |
| S26A S93V F98I | 2.7 µM | 3 of 3 |
| S26T L27M F98E | not detected | 0 of 3 |
| S26T R53D S92I | 26 µM | 2 of 3 |
| E23F S26T Y31K | 80 nM | 3 of 3 |
| S26C D91M S93I | not detected | 0 of 3 |
| S26Y Y29M G49D | 11 µM | 2 of 3 |
| S26E Y29S G49N | not detected | 0 of 3 |
| S26R Y31V D91H | not detected | 0 of 3 |
| S26F S88G F98I | not detected | 0 of 3 |
| S26G D91A | 400 nM | 3 of 3 |
| S26W G49P S88T | 8.4 µM | 3 of 3 |
| S26P S92H G94K | not detected | 0 of 3 |
| G24D S26A P54M | 45 nM | 3 of 3 |
| S26G L27C Q96S | 5.9 µM | 3 of 3 |
| S26V S88P | 20 µM | 1 of 3 |
| S26H G49W D91T | 2.5 µM | 3 of 3 |
| S26R R53D | 13 µM | 1 of 3 |
| S26A Y31S V97A | 17 nM | 3 of 3 |
| S26V A32G F95L | 21 µM | 1 of 3 |
| G24N S26T P54C | 28 µM | 2 of 3 |
| S26D Y30G R90V | 3.3 µM | 1 of 3 |
| S26W D91V S93V | 4.4 µM | 3 of 3 |
| S26E N33Y S93G | 12 µM | 3 of 3 |
| S26I Y29L F95E | not detected | 0 of 3 |
| G24F S26L R90W | 17 µM | 2 of 3 |
| G24D S26P A32E | 4.4 µM | 1 of 3 |
| S26G | 930 nM | 2 of 3 |
| S26A R53K | 140 nM | 3 of 3 |
| E23R S26L N33I | 2.1 µM | 3 of 3 |
| S26V Y30R N52W | 690 nM | 3 of 3 |
| S26W N33L K50V | 18 µM | 1 of 3 |
| S26C L27N F95A | 220 nM | 3 of 3 |
| D25E S26L V97Y | 24 µM | 3 of 3 |
| S26Q R90D Q96G | 2.3 µM | 3 of 3 |
| S26I R28Y Q96G | 18 µM | 1 of 3 |
| S26F K50I D91M | 1.5 µM | 2 of 3 |
| S26P Y31H D91G | 2.2 µM | 3 of 3 |
| S26M A32F S55N | 3.9 µM | 1 of 3 |
| S26F Y29P S92H | 6.1 µM | 2 of 3 |
| S26E Y30S S93T | 16 nM | 3 of 3 |
| D25Q S26A N33K | 46 µM | 1 of 3 |
| S26W N52E Q96K | not detected | 0 of 3 |
| S26I G49V P54I | not detected | 0 of 3 |
| S26T A32H N51H | 1.2 µM | 1 of 3 |
| S26F K50Y N51G | 7.2 µM | 3 of 3 |
| G24M S26Q Y29F | 18 µM | 3 of 3 |
| S26D N33K N51R | 1.8 µM | 1 of 3 |
| S26V A32N P54D | 210 µM | 1 of 3 |
| S26T S89L V97T | 1.4 mM | 1 of 3 |
| S26V G49A S55V | 2.3 µM | 1 of 3 |
| S26L N33K S93L | 1.8 µM | 1 of 3 |
| S26D Y29K S89K | 840 nM | 2 of 3 |
| S26Q K50C S89E | 28 µM | 3 of 3 |
| S26Y N52R S89L | 22 µM | 2 of 3 |
| S26T G49R S89F | 1.2 µM | 2 of 3 |
| S26P R53Q F95C | 220 nM | 3 of 3 |
| S26F Y30N Q96A | 9.7 nM | 3 of 3 |
| S26N R53D Q96G | 12 µM | 2 of 3 |
| D25L S26W V97S | 37 µM | 2 of 3 |

9 of these entries, quoted again:

changes	Kd	seen in
S26F S88G F98I	not detected	0 of 3
S26A Y31S V97A	17 nM	3 of 3
E23R S26L N33I	2.1 µM	3 of 3
S26V S88P	20 µM	1 of 3
S26P S92H G94K	not detected	0 of 3
S26W G49P S88T	8.4 µM	3 of 3
S26C L27N F95A	220 nM	3 of 3
S26T A32H N51H	1.2 µM	1 of 3
S26P R53Q F95C	220 nM	3 of 3

In this assay the parent's reference entry averaged 200 nM; its copy inside this library read 180 nM. Empty control strains, which show no peptide, gave a signal in 28% of pairings with library AAYL52; the median was 8.2 µM and 95% of these signals were weaker than 800 nM. No background was subtracted.

The measurements come from Engelhart et al. 2022 (doi:10.1038/s41597-022-01779-4) through the FLAb antibody collection.